Structures are written as SMILES. This is a selection; strong and weak results do not stand in their true shares. Activity calls are given as the source filed them.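 The calls were made as follows: active = cell count reduction more than 3 SD above the screen-wide mean (cut at about 70% in these data); inactive = the rest.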

This assay can be described thus: cytotoxicity in IL-1B stimulated HUVEC, primary screen, cytotoxicity control for IL-1B NFkB translocation project, imaging, Hoechst nuclear count, IL-1B stimulus (AID 845).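 Also: normalized per plate to untreated control cells as the no-loss baseline.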 The settings on record: HUVEC cell count loss, at 2 µM, stronger effect = higher value.
For `N#CC1(Nc2ccccc2)CCN(CCc2ccccc2)CC1`, the cell count reduction was inactive: -27.6%.
Under `O=C(NCC1(N2CCOCC2)CCCCC1)c1cc(=O)[nH]c2ccccc12` stands inactive: -5.7%; under `CN1CCC(Nc2cccc(F)c2)CC1`, inactive: 29.4%.
`O=C(OC1CN2CCC1CC2)C1c2ccccc2Oc2ccccc21` (stereo not given): the cell count reduction is inactive: -30.1%.
Under `O=C(NCC1(N2CCOCC2)CCCCC1)c1cc2ccccc2o1` stands inactive: -1.9%.
For `COc1ccc(NC2CCN(CCc3ccccc3)CC2)c(OC)c1`, the cell count reduction is inactive: -8.9%.
The same measure for `CCOc1ncccc1C(=O)NCC1(N2CCOCC2)CCCCC1`: inactive: -28%.
For `CCC(CO)(C(=O)OC1CN2CCC1CC2)c1ccccc1` (stereo not given), the cell count reduction was inactive: -33.3%.
Under `N/C(=N\O)c1c(N)no[n+]1[O-]` stands inactive: -9.6%.
The same measure for `c1ccc(CN2CCC(Nc3ccccc3)CC2)cc1`: inactive: 15.7%.

Values taken from PubChem BioAssay AID845 (Columbia University Molecular Screening Center, 2007).
